The conditions of this data set: compared with free base or hydrochloride form.

For the substance “3-(4-bromo-2,6-difluoro-benzyloxy)-5-[3-(4-pyrrolidin-1-yl-butyl)-ureido]-isothiazole-4-carboxylic acid amide hemi-citrate [Example 4]”, the “kinetic solubility relative to free base or hydrochloride” value is “greater kinetic solubility than the free base or hydrochloride form”.

These data come from US6831091B2, “Salt forms of 3-(4-bromo-2,6-difluoro-benzyloxy)-5-[3-(4-pyrrolidin-1-yl-butyl)-ureido]-isothiazole-4-carboxylic acid amide and method of production” (priority 2000, dated 2004).
